Data on one substance can be found in paper PMC6688529.

Assay [1] has as its target cytochrome c2-His6 (Rba. sphaeroides strain 2.4.1) (UniProt P0C0X8). Description: single-molecule dynamic force spectroscopy (AFM); as a1 (retraction velocity 500 nm s^-1), but after about 10 min with 3 µM free pre-reduced cytochrome c2-His6 in the AFM liquid cell.
Assay [2] shares this target. Briefly: single-molecule dynamic force spectroscopy (AFM); RC–LH1–PufX on the AFM tip via His12/Ni-NTA and a PEG12 linker, kept photo-oxidised by white light; pre-reduced cytochrome c2-His6 held on a Ni-NTA SiOx substrate via His6; 10 mM HEPES pH 7.4, 45 mM KCl, room temperature; retract velocity 200–3000 nm s^-1; the paper calls the values apparent.
Assay [3] has the same target. Description: PeakForce QNM single-molecule force spectroscopy (AFM); RC–LH1–PufX on the AFM tip, illuminated; pre-reduced cytochrome c2-His6 (and His6-CFP in patterned lines) held on a Ni-NTA SiOx substrate; 10 mM HEPES pH 7.4, 45 mM KCl, room temperature; modulation frequencies 0.5, 1 and 2 kHz.

Regarding “monomeric RC–His12–LH1–PufX core complex (reaction centre light-harvesting 1-PufX) (from UniProt P0C0Y7 1-260; P0C0Y8 2-282; P0C0Y9 2-308; P0C0X9 1-58; P0C0Y1 1-49; P13402 1-82)”, in assay [1], the binding probability with 3 µM free cytochrome c2-His6 is 4% and the peak of the unbinding force histogram with 3 µM free cytochrome c2-His6 was 280 pN. For the same substance, in assay [2], the binding probability (unbinding events per force–distance curves, 500 nm s^-1) stood at 20.3%; the rupture force of a typical single curve (retraction 500 nm s^-1) amounted to 185 pN; the rupture force of a typical single curve (retraction 1500 nm s^-1) is 272 pN; the rupture force of a typical single curve (retraction 3000 nm s^-1) stood at 375 pN. In assay [3], this substance gave a binding probability of 33% and a rupture force of a single unbinding event of 540 pN.
